Experimental data from patent publication US10975091B2, “Pyridine derivative” (Astellas Pharma Inc., priority 2014, dated 2021).
Where a name gives a salt, the structure may show the parent alone.

How the values were obtained:
[1] = system: continuously hydrated rats; conditions: groups with additional water loads; four hours after administration; FIG. 1
water-loaded rats = conditions: 3 mg/kg oral; water load 30 ml/kg 1 h after administration; urine volume 1 h after water loading; vs vehicle control group

| SMILES | urine volume relative to the Vehicle group [1] | Inhibition of urination (%) (water-loaded rats) |
| --- | --- | --- |
| CC(C)C[C@H](N)[C@](O)(Cc1cc(O[C@H]2CC[C@H](C)CC2)ccn1)C(=O)O (relative stereo) [EX-a] | approximately half amount of that of the Vehicle group | – |
| CC(C)C[C@H](N)[C@](O)(Cc1cc(SCCC2CC2)ccn1)C(=O)O [Example 111] | – | 57% |
| N[C@@H](CSCCC1CC1)[C@](O)(Cc1cc(OCCCC2CC2)ccn1)C(=O)O [Example 139] | – | 90% |
| CC(C)C[C@H](N)[C@](O)(Cc1cc(OCCCC2CC2)ccn1)C(=O)O [Example 29] | – | 93% |
| CC(C)C[C@H](N)[C@](O)(Cc1nccc2c1CC(CCC1CC1)O2)C(=O)O (some centres unmarked) [Example 83] | – | 80% |
| CC(C)C[C@H](N)[C@](O)(Cc1cc(OCCC2(C)CC2)ccn1)C(=O)O [Example 28] | – | 92% |
| C[C@H]1CC[C@H](Oc2ccnc(C[C@](O)(C(=O)O)[C@@H](N)COc3ccc(F)cn3)c2)CC1 [Example 84] | – | 64% |
| CC(C)C[C@H](N)[C@](O)(Cc1cc(OC2CCC3(CC2)CC3)ccn1)C(=O)O [Example 4, (2R,3S)-3-amino-2-hydroxy-5-methyl-2-{[4-(spiro[2.5]octa-6-yloxy)pyridin-2-yl]methyl}hexanoic acid] | – | 93% |
| N[C@@H](COCCC1CC1)[C@](O)(Cc1cc(OCCC2CC2)ccn1)C(=O)O [Example 110] | – | 57% |
| CCCCSc1ccnc(C[C@](O)(C(=O)O)[C@@H](N)CC(C)C)c1 [Example 18, (2R,3S)-3-amino-2-{[4-(butylsulphanyl)pyridin-2-yl]methyl}-2-hydroxy-5-methylhexanoic acid] | – | 52% |
| CC(C)C[C@H](N)[C@](O)(Cc1cc(OCCC2CC2)ccn1)C(=O)O [Example 1, (2R,3S)-3-amino-2-{[4-(2-cyclopropylethoxy)pyridin-2-yl]methyl}-2-hydroxy-5-methylhexanoic acid] | – | 88% |
| CC(C)C[C@H](N)[C@](O)(Cc1cc(S[C@H]2CC[C@H](C)CC2)ccn1)C(=O)O [Example 119] | – | 97% |
| N[C@@H](CCC1CCC1)[C@](O)(Cc1cc(OCCC2CC2)ccn1)C(=O)O [Example 9, (2R,3S)-3-amino-5-cyclobutyl-2-{[4-(2-cyclopropylethoxy)pyridin-2-yl]methyl}-2-hydroxypentanoic acid] | – | 82% |
| C=CCCOC[C@H](N)[C@](O)(Cc1cc(O[C@H]2CC[C@H](C)CC2)ccn1)C(=O)O [Example 88] | – | 89% |
| C[C@H]1CC[C@H](Oc2ccnc(C[C@](O)(C(=O)O)[C@@H](N)CSCC3CC3)c2)CC1 [Example 5] | – | 90% |
| CCSC[C@H](N)[C@](O)(Cc1cc(O[C@H]2CC[C@H](C)CC2)ccn1)C(=O)O [Example 105, (2R,3R)-3-amino-4-(ethylsulfanyl)-2-hydroxy-2-({4-[(trans-4-methylcyclohexyl)oxy]pyridin-2-yl}methyl)butanoic acid] | – | 98% |
| CC(C)C[C@H](N)[C@](O)(Cc1cc(O[C@H]2CC[C@H](C)CC2)ccn1)C(=O)O (relative stereo) [Example 6, (2R,3S)-3-amino-2-hydroxy-5-methyl-2-({4-[(trans-4-methylcyclohexyl)oxy]pyridin-2-yl}methyl)hexanoic acid dihydrochloride] | – | 96% |
| CCCC[C@@H](C)Oc1ccnc(C[C@](O)(C(=O)O)[C@@H](N)CC(C)C)c1 [Example 55] | – | 91% |
| CC(C)C[C@H](N)[C@](O)(Cc1cc(OC2CCCCC2)ccn1)C(=O)O.Cl.Cl [Example 3, (2R,3S)-3-amino-2-{[4-(cyclohexyloxy)pyridin-2-yl]methyl}-2-hydroxy-5-methylhexanoic acid dihydrochloride] | – | 59% |
| CCSC[C@H](N)[C@](O)(Cc1cc(OCCCC2CC2)ccn1)C(=O)O [Example 143] | – | 100% |
| CC(C)C[C@H](N)[C@](O)(Cc1cc(O[C@H](C)Cc2ccccc2)ccn1)C(=O)O [Example 92] | – | 61% |
| CC(C)C[C@H](N)[C@](O)(Cc1cc(OC2CCCCCC2)ccn1)C(=O)O [Example 41] | – | 55% |
| CC(C)C[C@H](N)[C@](O)(Cc1nccc2oc(CCC3CC3)cc12)C(=O)O [Example 20, (2R,3S)-3-amino-2-{[2-(2-cyclopropylethyl)furo[3,2-c]pyridin-4-yl]methyl}-2-hydroxy-5-methylhexanoic acid] | – | 94% |
